# Experimental data published in ChEMBL document CHEMBL4251662, “Alkyl indole-based cannabinoid type 2 receptor tools: Exploration of linker and fluorophore attachment” (Eur J Med Chem, 2018).
# Chains of the proteins cited; added tags and fusions are not shown.
# UniProt P21554, whole entry: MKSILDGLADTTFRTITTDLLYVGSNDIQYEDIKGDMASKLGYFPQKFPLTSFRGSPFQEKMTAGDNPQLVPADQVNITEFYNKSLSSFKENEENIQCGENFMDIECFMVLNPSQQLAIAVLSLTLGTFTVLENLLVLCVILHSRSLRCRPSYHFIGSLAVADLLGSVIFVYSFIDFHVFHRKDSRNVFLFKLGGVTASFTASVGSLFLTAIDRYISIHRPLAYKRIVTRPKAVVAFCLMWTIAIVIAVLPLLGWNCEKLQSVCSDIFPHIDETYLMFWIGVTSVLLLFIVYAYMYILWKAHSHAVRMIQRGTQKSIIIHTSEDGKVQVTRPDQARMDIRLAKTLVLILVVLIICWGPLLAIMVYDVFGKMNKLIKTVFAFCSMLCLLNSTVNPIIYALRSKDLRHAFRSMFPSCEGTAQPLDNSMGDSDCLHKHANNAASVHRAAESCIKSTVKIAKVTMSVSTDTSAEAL
# UniProt P34972, whole entry: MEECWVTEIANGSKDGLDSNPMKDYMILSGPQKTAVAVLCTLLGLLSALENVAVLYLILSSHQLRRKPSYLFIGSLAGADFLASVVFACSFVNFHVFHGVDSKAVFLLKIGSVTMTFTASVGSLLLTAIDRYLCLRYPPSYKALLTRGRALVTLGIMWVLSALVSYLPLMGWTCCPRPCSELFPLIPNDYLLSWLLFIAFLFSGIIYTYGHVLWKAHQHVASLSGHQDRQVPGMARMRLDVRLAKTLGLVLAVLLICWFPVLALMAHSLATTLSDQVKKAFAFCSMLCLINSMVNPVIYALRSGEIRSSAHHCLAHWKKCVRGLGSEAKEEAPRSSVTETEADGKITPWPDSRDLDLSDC
# What was measured:
# Cannabinoid receptor 1 [1] = biological target: T1, Cannabinoid receptor 1 (Homo sapiens, UniProt P21554); assay: Displacement of [3H]CP55,940 from N-terminal HA-tagged human CB1 receptor expressed in HEK293 cell membranes after 1 hr by microbeta scintillation counting method
# Cannabinoid receptor 2 = Cannabinoid receptor 2 (Homo sapiens, UniProt P34972); assay: Inverse agonist activity at N-terminal HA-tagged human CB2 receptor expressed in HEK293 cells transfected with YFP-Epac-RLuc assessed as increase in forskolin-stimulated cAMP level at 10 uM by BRET assay; type: functional, cell-based
# In short: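 Single-concentration screen at 10 µM in CB receptor-expressing HEK293 cells, run with and without CP55,940 as reference agonist. Forskolin-stimulated cAMP read by BRET biosensor. A fall in cAMP is scored as agonism and a rise as inverse agonism.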
# Cannabinoid receptor 1 [2] = biological target: T1, Cannabinoid receptor 1
structure (smiles),measurement,setting,value
Cc1ccc(Cn2nc(C(=O)N[C@@H]3C(C)(C)[C@@H]4CC[C@@]3(C)C4)cc2-c2ccc(Cl)c(C)c2)cc1,Ki,Cannabinoid receptor 1 [1],5.63 µM
same,Activity,Cannabinoid receptor 2,Active
same,Ki,Cannabinoid receptor 1 [2],1.7 µM

# Calls of active or inactive are those of the source. The rule behind the calls is not given here.
